Laboratory results taken from PubChem BioAssay (NCATS).
The list shows a part of the results, in another mix than the full data. Results filed as inconclusive are left out. The source made the active and inactive calls. Unless noted, the call rests on the fitted dose curve; in most records, active means well fitted curve in the direction sought with a large enough effect; inconclusive means small, poorly fitted or top-dose-only effect, or another doubt; inactive means no such curve, though single readings can be large; an effect the other way counts as inactive or inconclusive.

By UniProt entry, the sequences of proteins in these tests, tags left out. Where a name states a change or a piece, a line headed by the entry shows the natural chain unless it says otherwise.
UniProt Q13526, whole entry, looked up: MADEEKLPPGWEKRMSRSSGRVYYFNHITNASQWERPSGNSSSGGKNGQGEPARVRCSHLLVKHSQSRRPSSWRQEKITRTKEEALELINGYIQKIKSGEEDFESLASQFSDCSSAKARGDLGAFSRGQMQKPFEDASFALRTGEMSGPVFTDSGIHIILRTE
UniProt O94782: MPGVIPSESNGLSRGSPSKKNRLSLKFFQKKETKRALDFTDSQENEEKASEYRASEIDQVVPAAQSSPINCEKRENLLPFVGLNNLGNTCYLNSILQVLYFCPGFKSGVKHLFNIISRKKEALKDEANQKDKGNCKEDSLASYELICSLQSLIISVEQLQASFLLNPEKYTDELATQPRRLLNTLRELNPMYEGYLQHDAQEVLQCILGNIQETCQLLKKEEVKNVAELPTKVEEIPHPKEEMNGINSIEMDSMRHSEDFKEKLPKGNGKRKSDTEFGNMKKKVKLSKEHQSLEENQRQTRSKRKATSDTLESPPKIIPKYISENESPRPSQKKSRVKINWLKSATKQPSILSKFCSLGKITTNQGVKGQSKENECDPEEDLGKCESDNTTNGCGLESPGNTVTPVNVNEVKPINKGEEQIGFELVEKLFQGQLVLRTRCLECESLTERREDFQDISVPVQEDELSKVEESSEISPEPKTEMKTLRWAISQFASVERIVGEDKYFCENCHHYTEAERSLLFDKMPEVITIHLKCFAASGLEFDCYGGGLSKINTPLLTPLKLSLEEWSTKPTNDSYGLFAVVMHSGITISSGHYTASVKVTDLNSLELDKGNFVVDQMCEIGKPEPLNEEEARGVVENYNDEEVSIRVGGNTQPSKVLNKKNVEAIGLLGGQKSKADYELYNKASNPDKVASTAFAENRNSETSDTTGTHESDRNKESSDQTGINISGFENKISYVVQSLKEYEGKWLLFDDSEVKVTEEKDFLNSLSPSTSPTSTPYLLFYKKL
UniProt P08659, whole entry, looked up: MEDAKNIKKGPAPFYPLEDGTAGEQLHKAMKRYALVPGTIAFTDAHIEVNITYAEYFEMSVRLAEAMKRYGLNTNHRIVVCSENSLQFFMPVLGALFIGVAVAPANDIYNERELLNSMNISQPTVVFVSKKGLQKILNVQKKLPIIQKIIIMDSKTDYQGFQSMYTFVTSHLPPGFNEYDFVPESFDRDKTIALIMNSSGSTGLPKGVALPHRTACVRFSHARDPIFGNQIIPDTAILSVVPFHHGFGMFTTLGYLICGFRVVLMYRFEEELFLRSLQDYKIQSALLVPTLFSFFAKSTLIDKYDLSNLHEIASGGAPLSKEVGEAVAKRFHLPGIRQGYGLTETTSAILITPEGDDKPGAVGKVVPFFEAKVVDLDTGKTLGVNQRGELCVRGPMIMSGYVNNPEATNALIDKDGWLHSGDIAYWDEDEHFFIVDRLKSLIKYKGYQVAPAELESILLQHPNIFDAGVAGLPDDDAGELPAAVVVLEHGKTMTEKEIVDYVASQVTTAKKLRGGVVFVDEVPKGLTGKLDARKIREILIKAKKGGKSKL
UniProt P43220, whole entry, looked up: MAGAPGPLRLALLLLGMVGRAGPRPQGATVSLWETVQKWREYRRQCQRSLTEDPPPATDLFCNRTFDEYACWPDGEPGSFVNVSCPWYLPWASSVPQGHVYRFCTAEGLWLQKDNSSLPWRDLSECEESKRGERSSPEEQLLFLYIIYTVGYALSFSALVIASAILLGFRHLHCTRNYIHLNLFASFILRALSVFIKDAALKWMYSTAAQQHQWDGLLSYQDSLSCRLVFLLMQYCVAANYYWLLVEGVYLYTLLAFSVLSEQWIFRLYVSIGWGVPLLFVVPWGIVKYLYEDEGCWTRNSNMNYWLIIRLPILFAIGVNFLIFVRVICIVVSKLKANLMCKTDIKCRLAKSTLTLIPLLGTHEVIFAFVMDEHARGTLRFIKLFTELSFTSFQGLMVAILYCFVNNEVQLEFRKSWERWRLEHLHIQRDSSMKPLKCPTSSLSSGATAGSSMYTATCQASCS
UniProt P35557, whole entry, looked up: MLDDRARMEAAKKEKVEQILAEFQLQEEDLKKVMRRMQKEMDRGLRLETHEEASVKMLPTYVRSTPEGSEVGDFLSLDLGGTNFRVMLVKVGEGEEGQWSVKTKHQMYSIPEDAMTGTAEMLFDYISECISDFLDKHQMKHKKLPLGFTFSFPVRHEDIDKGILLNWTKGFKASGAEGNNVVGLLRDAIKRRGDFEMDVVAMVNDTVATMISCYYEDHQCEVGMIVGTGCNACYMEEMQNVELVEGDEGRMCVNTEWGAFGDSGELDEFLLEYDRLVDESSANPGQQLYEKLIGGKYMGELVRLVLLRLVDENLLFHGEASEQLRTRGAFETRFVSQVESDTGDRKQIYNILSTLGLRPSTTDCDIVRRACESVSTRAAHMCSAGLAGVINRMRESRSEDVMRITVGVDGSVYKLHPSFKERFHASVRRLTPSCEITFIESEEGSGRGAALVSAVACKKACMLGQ
UniProt Q14397: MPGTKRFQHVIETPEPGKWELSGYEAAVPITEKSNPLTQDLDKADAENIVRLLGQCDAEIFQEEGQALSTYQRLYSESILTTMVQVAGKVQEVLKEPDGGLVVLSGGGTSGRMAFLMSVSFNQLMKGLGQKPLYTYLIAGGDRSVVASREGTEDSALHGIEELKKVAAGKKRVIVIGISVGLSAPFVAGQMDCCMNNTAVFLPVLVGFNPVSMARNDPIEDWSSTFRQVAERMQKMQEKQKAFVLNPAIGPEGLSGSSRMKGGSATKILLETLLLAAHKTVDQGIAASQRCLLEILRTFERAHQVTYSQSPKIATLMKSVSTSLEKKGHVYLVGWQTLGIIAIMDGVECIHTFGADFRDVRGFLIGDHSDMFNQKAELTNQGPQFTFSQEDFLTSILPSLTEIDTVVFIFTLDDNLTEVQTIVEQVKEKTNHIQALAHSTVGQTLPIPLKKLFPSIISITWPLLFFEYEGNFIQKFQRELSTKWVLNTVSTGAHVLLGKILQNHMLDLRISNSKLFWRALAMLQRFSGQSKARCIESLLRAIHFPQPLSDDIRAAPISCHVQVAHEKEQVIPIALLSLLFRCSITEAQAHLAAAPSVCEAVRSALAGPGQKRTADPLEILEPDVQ

Experiments:
[1] = molecular target: Peptidyl-prolyl cis-trans isomerase NIMA-interacting 1 (Homo sapiens) (UniProt Q13526); assay: qHTS Validation Assay to Find Inhibitors of Pin1 (AID 504536; active means well fitted inhibition curve with a large enough effect in the polarisation, with a control signal flat, not every such curve was filed as active; the % refers to the polarisation;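 further: 0% = full Pin1 enzyme wells and -100% = no-enzyme wells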); conditions: Pin1 fluorescence polarization peptide binding assay; at 57.5 µM (top of the series)
Outline: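 Fluorescence polarization competition: compounds (titration) displace HiFluor-488-labeled Pin1-1b peptide from Pin1 (0.3 uM final) in pH 7.5 HEPES buffer with DTT, 10 min at room temperature; %Activity normalized to no-enzyme wells, curves fitted.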

[2] = Inducers of the Endoplasmic Reticulum Stress Response (ERSR) in human glioma: Validation (AID 504836); conditions: human glioma cells, ER stress response reporter; at 38.3 µM (top of the series); further: 0% is about no effect
Outline: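 ERSR induction read as luciferase luminescence (Bright-Glo, 10 min at room temperature) in stably transfected human U87-MG glioma cells exposed to compounds for 16 h, using GRP78 as sensor.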

[3] = molecular target: Ubiquitin carboxyl-terminal hydrolase 1 (Homo sapiens) (UniProt O94782); assay: Inhibitors of USP1/UAF1: Pilot qHTS (AID 504865); conditions: purified USP1/UAF1, Ub-rhodamine cleavage fluorescence; at 114 µM (top of the series);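 further: rhodamine fluorescence freed from ubiquitin-rhodamine substrate followed over time; top concentration of the series differs between compounds; on the % scale 0 is the no-effect control and ±100 the full control effect; nearly all actives have a fitted effect of over 35% in size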
[4] = molecular target: Luciferin 4-monooxygenase (Photinus pyralis) (UniProt P08659); assay: Biochemical firefly luciferase enzyme assay for NPC (AID 624030);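 further: purified P. pyralis luciferase at 10 nM with luciferin and ATP substrate; 0% = DMSO and -100% = full luciferase inhibition by PTC124 control; nearly all actives have a fitted effect of over 70% in size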; conditions: purified P. pyralis luciferase, luminescence, 5 min; at 58.6 µM (top of the series) unless noted
Outline: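 Direct inhibition of firefly luciferase enzyme (10 nM final, 50 mM Tris Acetate) assessed by luminescence within 5 minutes. Percent activity scaled between DMSO and PTC124 positive control, with concentration-effect curves classified by fit quality and response.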

[5] = molecular target: Glucagon-like peptide 1 receptor (Homo sapiens) (UniProt P43220); assay: qHTS of GLP-1 Receptor Agonists: LOPAC Validation (AID 624148); conditions: GLP-1R agonist cell assay; at 46.1 µM (top of the series);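 further: luminescence from a luciferase reporter switched on by cAMP; 0% is about no effect; higher luminescence signal means agonism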
Outline: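 Agonism scored as increased luciferase luminescence driven by cAMP in HEK293 clones carrying GLP-1R. Cells settled 12 hours, received compound for 4-6 hr at 37 deg C, 5% CO2, and were read after 12 min detection reagent at RT.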

[6] = qHTS of Nrf2 Activators: LOPAC Validation (AID 624149); conditions: Nrf2/ARE reporter cell assay; at 46.1 µM (top of the series); further: 0% is about no effect
Outline: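 Cells (AREc32_Fluc) are plated at 1000 per well in OPTI-MEM containing 5% FBS and left overnight. Compounds are pinned in and incubated 24 hr at 37 deg C, and firefly luciferase is detected with Steady-Glo.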

[7] = HTS Assay for Allosteric Antagonists of the Human D2 Dopamine Receptor: Hit Validation in HTRF (AID 624455); conditions: D2 receptor cells, HTRF cAMP read-out, antagonist mode; at 46.1 µM (top of the series);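 further: stable D1 dopamine receptor cell line scored for blocking the D1 response; on the % scale 0 is the no-effect control and ±100 the full control effect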
Outline: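 Inhibition of the D1-mediated response is measured by HTRF in cells that stably express the D1 dopamine receptor. Compounds reaching this step are hits from calcium-flux antagonism testing at EC80 dopamine in inducible Hek293 Trex D2 cells.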

[8] = qHTS for compounds that reverse cellular toxicity of Amyloid beta (A-beta) peptide in yeast: LOPAC Validation Assay (AID 720559); conditions: yeast expressing A-beta; at 46.1 µM (top of the series);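 further: plate controls were DMSO for no effect and equimolar ferric chloride plus clioquinol rescue for full effect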
Outline: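 Activity is expressed relative to DMSO and an equimolar ferric chloride/clioquinol mix. Compounds were pinned into medium with A-beta-expressing yeast, grown 48 hr at 30 C, then read by absorbance at 600 nm.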

[9] = qHTS for Activators of Parkin Expression: LOPAC Validation Assay (NLuc Reporter) (AID 720572); conditions: Parkin promoter NanoLuc reporter cells, luminescence, percent of positive control, DMSO as zero; at 46.1 µM (top of the series)
Outline: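 Compound effects on Parkin promoter activity were measured as NanoLuc luminescence after 24 h at 37 C. The neuronal reporter line also carried FLuc, which was read first. LOPAC compounds were tested at 7 concentrations, with normalization to DMSO (0%) and positive control (100%).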

[10] = qHTS for Activators of Parkin Expression: LOPAC Validation Assay (FLuc Reporter) (AID 720573); conditions: Cell line, PRKN promoter firefly luciferase reporter, vehicle wells = 0, positive control = 100%; at 46.1 µM (top of the series)
Outline: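 A neuronal cell line harbouring FLuc and NLuc reporters behind the Parkin promoter was exposed to compounds for 24 h. Firefly luciferase signal, measured after 10 min with detection reagent, was scaled to DMSO and positive-control wells.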

[11] = molecular target: T1, Hexokinase-4 (Homo sapiens) + Glucokinase regulatory protein (Homo sapiens) (UniProt P35557+Q14397); assay: qHTS assay for inhibitors of recombinant human GCK-GKRP interaction: Diaphorase-coupled assay (AID 743205); conditions: G6PDH/diaphorase resorufin fluorescence; at 57.5 µM (top of the series)
Outline: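 Inhibitors of the GCK–GKRP complex relieve GKRP suppression of GCK, detected through a G6PDH–diaphorase cascade reducing resazurin. Human GST-GCK and FLAG-GKRP are used at 10 nM with 5 mM glucose and 0.4 mM ATP.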

[12] = molecular target: T1, Hexokinase-4 (Homo sapiens) + Glucokinase regulatory protein (Homo sapiens); assay: qHTS assay for inhibitors of recombinant human GCK-GKRP interaction: ADP-Glo assay (AID 743206); conditions: ADP-Glo luminescence, 60 min, 0% = vehicle-only wells with enzyme present; at 76.9 µM (top of the series);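 further: plate controls were DMSO plus enzyme for no effect and no enzyme for full effect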
Outline: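 Pin-transferred compounds meet a 15 nM GST-GCK/15 nM FLAG-GKRP/2 uM S6P mix (dispense concentrations). ATP is then added to 0.4 mM final with 5 mM glucose, and the reaction runs 60 min at room temperature. ADP is quantified luminescently.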

[13] = molecular target: T1, Hexokinase-4 (Homo sapiens) + Glucokinase regulatory protein (Homo sapiens); assay: qHTS assay for inhibitors of recombinant human GCK-GKRP interaction: HTRF assay (AID 743207); conditions: recombinant GCK-GKRP HTRF binding, 60 min, with sorbitol-6-phosphate; at 57.5 µM (top of the series);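 further: 0% = DMSO with GCK present and -100% = DMSO wells lacking GCK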
Outline: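 Steps: dispense GCK–GKRP complex (5 nM each, GST- and FLAG-tagged) with 2 uM S6P; pin in compounds; add XL665/Eu-cryptate-labelled antibodies; incubate 60 min at room temperature; read time-resolved FRET at 665 and 615 nm.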

[14] = qHTS Assay for Identifying Gametocytocidal Compounds (AID 743244);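 further: on the % scale 0 is the no-effect control and ±100 the full control effect; actives lower the fluorescent signal which means gametocytes are killed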; conditions: P. falciparum 3D7 stage III-V gametocytes, alamarBlue, 72 h; max response: stronger effect = lower value
[15] = Natriuretic polypeptide receptor (hNpr1) antagonism - Pilot counterscreen GloSensor control cell line (AID 1347045; calls by dose curve; further: on the % scale 0 is the no-effect control and ±100 the full control effect); conditions: GloSensor cAMP control cell line, luminescence counterscreen; at 38.3 µM (top of the series)
Outline: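 Cells were first seeded and incubated overnight at 37C, then loaded with 2% GloSensor substrate for 2 h. Compounds were added for 30 min at room temperature, followed by a baseline read, 50 uM SNP and a final read after 20 min.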

CN(C(=O)Cc1ccc(Cl)c(Cl)c1)[C@@H]1CC[C@]2(CCCO2)C[C@H]1N1CCCC1
inactive: activity, negative = inhibition [1] -13.1% | activation [2] 0.194% | activity change, negative = inhibition [3] -3.07% | activity change, negative = inhibition [4] -1.66% | activation [5] -1.03% | activation [6] 0.908% | activity, negative = inhibition [7] -0.613% | growth rescue, positive = activation [8] -4.13% | activation [9] -4.1% | activation [10] -2.23% | activity change, positive = activation [11] -3.75% | activity, positive = activation [12] 4.58% | activity change, negative = inhibition [13] -3.56% | max response [14] 13.6% | activity change, negative = inhibition [15] 1.75%
